Results published in patent US9265816B2, “Immunogenic WT-1 peptides and methods of use thereof” (priority 2006, dated 2016).

What was measured:
[1] = tested on: CD3+ T cells; assay: Cross-priming: T cells stimulated with DCs incubated with tumor lysates, IFN-gamma ELISPOT against peptide-pulsed DCs; type: cell-based, human
Method: A CD3^+ in vitro stimulation was performed as described above. 2×10^6 immature DCs were incubated with total cellular lysate from 2×10^6 tumor cells that was previously prepared by 3 freeze/thaw cycles. Following an 18 hour incubation, maturation cytokines were added to the DCs as described above. CD3^+ cells were stimulated 3 times with these autologous mature DCs, after which T cells were tested in an MN-gamma ELISPOT assay for reactivity against autologous, mature DCs that had been pulsed with individual CD4^+ peptides when in the immature state. These DCs were exposed to peptide again during the ELISPOT assay as described above.
Cross-priming studies were performed to determine whether WT1-expressing cells process and present peptides of the present invention and/or the corresponding native peptides. Total tumor lysates were prepared from 3 different cell lines: 697 (WT1^+, HLA A0201^+), an e1a2 leukemia cell line; JMN (WT1^+, HLA A0201^+) a biphasic mesothelioma cell line, and as a control, MeWo (WT1^−, HLA A0201^+), a malignant melanoma cell line. DCs from healthy A0201^+ donors were incubated for 18 hours with the tumor lysates and used to stimulate autologous CD3^+ T cells. Following 3 stimulations, the T cells were tested for their reactivity to autologous DCs pulsed with the WT1 peptides. […]

[2] = tested on: JMN (WT1+ mesothelioma cell line); type: cell-based; details: human T cells stimulated 2 times with the peptide
Method: (§1) FIG. 9, left panel. […] CD8^+ T cells were incubated with radiolabeled target cells (pulsed or unpulsed 697 (A0201^+, WT1^+) or SKLY16 (A0201+, WT1-) at 3 different E:T ratios: Grey bars 100:1; Black bars 30:1; White bars 10:1. Y axis: percentage of cytotoxicity. X axis: target cell conditions. *-p<0.05 compared to SKLY16 controls at the same E:T ratio. Right panel: CD8+ T cells isolated as described for the left panel were incubated with radiolabeled JMN (solid line A0201+ WT1+) or MeWo (dashed line A0201+, WT1-) target cells at 4 different E:T ratios: Y axis: percentage of cytotoxicity. X axis: E:T ratios. P was <0.001 compared to MeWo controls. The presence of specific CTL was measured in a standard 4 h-chromium release assay. Target cells were pulsed with 10 microgram (mcg)/ml of synthetic peptides overnight at 37° C. and labeled with 300 μCi of Na2^51CrO4 (NEN Life Science Products, Inc., Boston, Mass.). After extensive washing, target cells were incubated with T cells at an E:T ratio ranging from 100:1 to 10:1. […] Supernatant fluids were harvested and radioactivity was measured in a gamma counter. Percent specific lysis was determined from the following formula: 100×[(experimental release minus spontaneous release)/(maximum release minus spontaneous release)]. Maximum release was determined by lysis of radiolabeled targets in 2.5% Triton X-100.

[3] = tested on: MeWo (WT1- melanoma cell line); assay: Chromium 51 cytotoxicity assay; type: cell-based; details: human T cells stimulated 2 times with the peptide
Method: as §1

Question: Which “recognition by T cells stimulated with DCs pulsed with 697 tumor lysate” value [1] does the source give for “RMFPNAPYL (listed as Homo sapiens) [WT1 A (native)]” here?
Answer: The value was “recognized”.

Question: And the “lysis of JMN” value [2]?
Answer: The value was 19%.

Question: And the “lysis of MeWo” value [3]?
Answer: The value was 9.2%.
